Measurements published in BindingDB's records for doi:10.1124/mol.63.6.1223 (Case Western Reserve University, 2003).

Protein sequences, listed by entry. Tags and fused reporters are not part of them.
UniProt P41595, whole entry: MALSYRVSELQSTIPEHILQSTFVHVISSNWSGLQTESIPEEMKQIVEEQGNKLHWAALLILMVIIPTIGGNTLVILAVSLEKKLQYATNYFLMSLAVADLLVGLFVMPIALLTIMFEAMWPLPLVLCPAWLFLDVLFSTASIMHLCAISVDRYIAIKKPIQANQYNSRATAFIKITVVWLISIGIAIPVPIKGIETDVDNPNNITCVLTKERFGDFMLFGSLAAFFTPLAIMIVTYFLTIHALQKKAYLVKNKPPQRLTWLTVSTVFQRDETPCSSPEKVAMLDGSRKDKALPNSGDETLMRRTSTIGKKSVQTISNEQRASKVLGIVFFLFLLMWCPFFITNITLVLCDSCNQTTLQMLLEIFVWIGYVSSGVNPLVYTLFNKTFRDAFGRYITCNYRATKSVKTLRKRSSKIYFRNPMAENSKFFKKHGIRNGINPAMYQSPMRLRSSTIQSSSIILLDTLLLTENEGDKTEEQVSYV

Target: 5-hydroxytryptamine receptor 2B (Homo sapiens, UniProt P41595)

CCNC(C)Cc1cccc(C(F)(F)F)c1 (stereo unspecified) [NSC_3337]
Ki: 400 nM
